In patent US20260275412A1, “A GENE SIGNATURE FOR DIAGNOSING STIMULATOR OF INTERFERON GENES (STING)-ASSOCIATED VASCULOPATHY WITH ONSET IN INFANCY (SAVI)” (INSTITUT NATIONAL DE LA SANTÉ ET DE LA RECHERCHE MÉDICALE, priority 2023, published 2026):

How the values were obtained:
Assay type in all cases: cell-based, human
[1] = tested on: healthy PBMC; experiment: IFN-β stimulation of healthy PBMC, secreted cytokines by proximity extension assay (Olink); settings: conditioned media
Procedure: (§1) Cells were challenged with 25 μL of recombinant IFN-β (Human interferon beta 1a, mammalian, Catalog No 11410-2, PBL assay Science, USA) at 6,000 IU/mL for a final concentration of 1000 U/mL per well, at one of several timepoints: 1 h, 2 h, 4 h, 8 h, 12 h, 24 h or 36 h. Stimulations were done so that all cells, even unstimulated, would be kept a total of 36 h in culture. After 36 h of culture at 37° C., 5% of CO2, cells were collected and counted. 10,000 cells were sent to scRNA-seq and 2 million to cell phenotyping by CyTOF. Supernatant was frozen at −20° C. and kept for analysis of secreted proteins.
The plasma samples and conditioned media from in vitro stimulated PBMC were analyzed by proximity extension assays (PEA), a targeted, antibody-based, proteomics method. We used the PEA Olink Target96 Inflammation panel which targets 92 biomarkers. Briefly, 2 DNA-labeled antibodies bind to a targeted protein, followed by hybridization of the oligonucleotides when the antibodies come in close proximity to each other. Adding DNA polymerase to the sample generates a unique PCR target sequence, which is then detected and quantified using a quantitative PCR (qPCR) readout (BiomarkHD™, Data collection and Real Time PCR analysis software 4.7.1, Fluidigm).
The Olink PEA Quality control process consists of technical controls to monitor the performance of all 3 steps of the assays (immunoreaction, extension, and amplification/detection) as well as the individual samples. Internal controls are spiked into each sample to provide a non-human assay control, a positive extension control consisting of an antibody coupled to a unique DNA-pair and, finally, a positive detection control based on a double stranded DNA amplicon. In addition, each experimental run includes a control strip with control samples used to estimate the accuracy of protein detection and quantification (intra- and inter-coefficient of variation). A negative control (buffer) run in triplicate is used to set background levels and calculate limit of detection (LOD), a plate control (plasma pool) is run in triplicate for plate normalization, and a sample control (reference plasma) is included in duplicate to estimate CV between runs.
Data are presented as NPX (Normalized Protein expression) values. NPX is Olink's relative protein quantification unit on log 2 scale. Data generation of NPX (obtained using Olink NPX Manager 3.3.2.434) consists of normalization to the extension control (known standard), log 2-transformation, and level adjustment using the plate control (plasma sample).
Serial dilutions of samples are performed to determine a potential Hook effect (observed when there is an antigen excess relative to the reagent antibodies, resulting in falsely lower values). […]

[2] = tested on: healthy PBMC; experiment: IFN-β stimulation of healthy PBMC, cell phenotyping by CyTOF; settings: within 36 hours of stimulation; scRNA-seq validated by CyTOF
Procedure: (§2) Buffy coats from three healthy young male (19 to 22 years old) were obtained from the Etablissement Français du Sang. PBMCs were isolated using Ficoll (Eurobio Scientific, Les Ulis, France) density gradient and centrifugation at 800 g without brakes for 25 minutes. Following centrifugation, cells were washed in wash buffer and centrifuged at 160 g for 9 minutes at 4° C. and the pellet was resuspended in 10 mL of wash buffer. Cells were plated in 96-wells tissue culture plates, with 150,000 cells per wells in an initial volume of 125 μL. One plate was made for each donor for each timepoint to plate a total of 15 million cells per condition.
as §1, with “proteins. […]” for “proteins.”

[3] = tested on: healthy PBMC; experiment: IFN-β stimulation of healthy PBMC, scRNA-seq
Procedure: as §2, §1
The 24 scRNA-seq libraries of the IFN dataset were generated using Chromium Single Cell Next GEM 3′ Library & Gel Bead Kit v.3.1 (10× Genomics) according to the manufacturer's protocol, following the same steps as in the SAVI dataset. The purified libraries were sequenced on a Novaseq (Illumina) with 28 cycles of read 1, 8 cycles of i7 index and 91 cycles of read 2.
Sequencing reads were demultiplexed and aligned to the human reference genome (hg38), and counted using the CellRanger Pipeline v6.0. Unfiltered RNA UMI counts were loaded into Seurat v4 for quality control, data integration and downstream analyses. Apoptotic cells and empty sequencing capsules were excluded by filtering out cells with low number of features (Filters were defined based on the batch: STING1: nFeature <300; STING2 and STING3<500; IFN-stim <750) or a mitochondrial content higher than 20%. Data from each sample were normalized using sctransform, before batch correction using Seurat's FindIntegratedAnchors, on the 3,000 most variable features. For the IFN-β dataset, for computational efficiency, integration anchors were determined with a canonical correlation analysis, using all unstimulated samples as reference. For the SAVI dataset, to avoid over-aligning samples, a reciprocal principal component analysis (PCA) was used to find integration anchors. On the resulting integrated datasets, we computed the PCA on the 3000 most variable genes, before computing a UMAP (on 20 PCs for SAVI and 30 PCs for IFN-stimulation). Community detection was performed using the graph-based modularity-optimization Louvain algorithm from Seurat's FindClusters function with a 1.2 resolution. Cell types labels were assigned to resulting clusters based on a manually curated list of marker genes as well as previously defined signatures of the PBMC subtypes.^58 Despite filtering for high quality cells, 11/34 clusters in the SAVI dataset and 7/36 in the IFN-β dataset stood out as poor quality clusters and were removed from further analysis. They represented low UMI cells, dying cells, cycling cells, doublets, or contaminants (progenitor cells, basophils, platelets or megakaryocytes). A total of 112,060 and 115,503 cells were kept in the SAVI and IFN-β datasets respectively. Transcriptomic signatures scores were calculated using Seurat's AddModuleScore function. Differential expression testing was conducted using the FindMarkers function in Seurat, with default Wilcoxon testing. P-values were controlled using Bonferroni correction. Genes with an absolute log (fold-change) ≥0.25 and an adjusted p-value≤0.05 were selected as differentially expressed. […]

[4] = PBMCs stimulated with IFN-β for 36 h
[5] = IFN-β stimulated monocytes, 36 h

IFN-β: recombinant IFN-β (Human interferon beta 1a, mammalian, Catalog No 11410-2, PBL assay Science)
CCL19 secretion [1, 4]: induction | CXCL10 secretion [1, 4]: induction | VEGFA secretion [1, 4]: induction | CXCL8 secretion ([1]; PBMCs stimulated with IFN-β): increased secretion | effector T cells (cell type proportions) [2]: no decrease | STING activation signature (21 genes) ([3]; IFN data set, any timepoint): not increased | transcriptomic signature of NF-κB activation ([3]; IFN-β 1000 U/mL, 1 h to 36 h, particularly monocytes and DCs): induced by IFN-β as soon as one-hour of stimulation but continues to increase until 36 h | IFN-related and inflammation-related pathways ([3]; IFN-β for 36 h, pathway analysis of DEGs): activated | cell death pathways ([3]; IFN-β for 36 h compared to unstimulated cells): enriched | PPP1R15A expression [3, 5]: increased | UPR signature [3, 5]: increased | UPR ([3]; IFN-β stimulation, compared with SAVI patients): slight increase | unfolded protein response (UPR) pathway ([3]; IFN-β time course, increasing induction throughout): induced as soon as 4 h | EIF2 signaling pathway ([3]; IFN-β time course, lowest prediction score at 36 h): inhibited as soon as 2 h | senescence signature ([3]; T cells, IFN-β dataset): increased senescence | proportion of cells in G2/M phase ([3]; T cells, IFN-β dataset, back to normal after 36 h): decreased proportion of cells in G2/M phase | CD69 expression (mRNA) ([3]; T cells, IFN-β time course): induced by IFN-β challenge at early time points but returned to basal levels between 4 and 12 h post stimulation | other cell death pathways (necroptosis, death receptor signaling) ([3]; T cells, IFN-β-challenge): induced | global T cell activation signature ([3]; T cells, IFN-β-challenged cells): increased | apoptosis signature ([3]; T cells, IFN-β-treated, 2 h, decreased afterwards): sharp increase | lymphocyte trafficking signature ([3]; effector T cell clusters after IFN-β challenge): decreased | actin/integrin-related pathways ([3]; healthy PBMCs 36 h post-IFN-β stimulation, predicted): activated in T cells and B cells, while inhibited in monocytes and NK cells | type I IFN response signature ([3]; recombinant IFN-β 1000 U/mL, 1 h to 36 h): robust induction as soon as one hour of stimulation, peaking after 2 h
